The values below are quoted from earlier work in patent US20140194479A1 (published 2014).

This series relates to 5-HT uptake. To be noted: McEwen et al., 2010, Mennini et al., 1987; cited from earlier work.

The structures appear in SMILES notation.

Consider `CN1c2ccccc2C(NCCCCCCC(=O)O)c2ccc(Cl)cc2S1(=O)=O` (stereo not shown) [tianeptine], for which the “Vmax of 5-HT uptake” value was “increases”.
